# Experimental data: patent US20030082226A1, “Non-steroidal antiinflammatory drug formulations for topical application to the skin” (priority 1997, published 2003)
# Experiment: Delivery of various NSAIDs through human skin, effect of propylene glycol, static cells (Example 8)
# Format: in vitro ADME
# Conditions: 10% enhancer, 0 to 20% PG
# Text: All the tested formulations included ethanol and water at a 70:30 weight ratio and were neutralized with base to a pH of about 7.
smiles,measurement,value
O=C(O)Cc1ccccc1Nc1c(Cl)cccc1Cl [Diclofenac],effect of propylene glycol on total delivery (percent of original dose) at twenty four hours,positive
CC(C)Cc1ccc(C(C)C(=O)O)cc1 (centres unmarked) [Ibuprofen],effect of propylene glycol on total delivery (percent of original dose) at twenty four hours,negative
